The entries are a selection whose mix differs from that of the whole data set. Some of these compounds have results that are not shown, active ones among them. Calls of active or inactive are those of the source. The rule behind the calls is not given here.

Chains of the proteins cited; added tags and fusions are not shown.
UniProt O15492, whole entry, looked up: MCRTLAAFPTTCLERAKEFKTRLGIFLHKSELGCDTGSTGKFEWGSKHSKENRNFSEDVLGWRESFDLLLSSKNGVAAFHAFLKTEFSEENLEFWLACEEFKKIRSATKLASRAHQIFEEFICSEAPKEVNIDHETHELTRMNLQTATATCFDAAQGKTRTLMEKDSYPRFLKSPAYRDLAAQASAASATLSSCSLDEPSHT
UniProt P09471, whole entry, looked up: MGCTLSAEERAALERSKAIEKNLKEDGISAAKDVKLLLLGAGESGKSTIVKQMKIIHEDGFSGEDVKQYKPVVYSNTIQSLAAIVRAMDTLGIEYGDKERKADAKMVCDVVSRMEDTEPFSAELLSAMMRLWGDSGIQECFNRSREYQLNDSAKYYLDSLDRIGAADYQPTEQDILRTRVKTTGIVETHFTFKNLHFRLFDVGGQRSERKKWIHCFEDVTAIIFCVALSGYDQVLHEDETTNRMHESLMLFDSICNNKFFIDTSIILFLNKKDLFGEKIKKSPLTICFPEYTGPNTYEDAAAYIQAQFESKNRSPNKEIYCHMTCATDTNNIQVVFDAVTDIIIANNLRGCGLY

The target in the assay is Regulator of G-protein signaling 16 (Homo sapiens) + Guanine nucleotide-binding protein G(o) subunit alpha (Homo sapiens) (UniProt O15492+P09471). The experiment in a line: RGS16-Galphao interaction inhibitors and enhancers – biochemical, human proteins, multiplexed bead flow cytometry, primary screen (AID 1441).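 Note: Galphao activated by GDP with aluminum fluoride before binding.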 Particulars: bead-based flow cytometry RGS16-Galphao binding, fluorescence; at 10 µM; actives lie on both sides. For orientation: Flow cytometry measures light scatter and fluorescence of single cells or particles in a stream.
As to `O=C(OC1CN2CCC1CC2)C(CO)(c1ccccc1)c1ccccc1` (stereo unspecified), the binding response (% of control) was inactive: 102%.
With `COc1ccc(Br)c(C(=O)NCC2(N3CCCCC3)CCCCC2)c1` the figure was inactive: 101%.
For `CN(C)c1cccc(C(=O)NCC2(N(C)C)CCCCC2)c1`, the binding response (% of control) was inactive: 102%.
In the case of `COc1cccc(C(=O)NCC2(N3CCCCC3)CCCCC2)c1`, the binding response (% of control) was inactive: 97%.
As for `CN(C)C1CCCC1OC(=O)C(O)(c1ccccc1)c1ccccc1` (stereo unspecified), the binding response (% of control) was inactive: 104%.
Take `Cc1ccccc1C(=O)NCC1(N2CCCCC2)CCCCC1`: the binding response (% of control) was inactive: 108%.
Next, `C=CCN1CCN(CCOC(=O)C(O)(c2ccccc2)c2ccccc2)CC1`: inactive: 100%; `CCN1CCCC(OC(=O)C2(O)c3ccccc3C=Cc3ccccc32)C1` (stereo unspecified): inactive: 131%.
Regarding `O=C(NCC1(N2CCCCC2)CCCCC1)c1cc([N+](=O)[O-])ccc1Cl`, the binding response (% of control) was inactive: 105%.
Take `CCN(CC)CC(C)C(C)OC(=O)C(O)(c1ccccc1)c1ccccc1` (stereo unspecified): the binding response (% of control) was inactive: 97.7%.
Take `CC(C)N1C(=O)CC2(CCN(CCOC(=O)C(O)(c3ccccc3)c3ccccc3)CC2)C1=O`: the binding response (% of control) is inactive: 96.5%.

The values above are taken from PubChem BioAssay AID1441 (NMMLSC, 2008).
